The values below are quoted from earlier work in paper PMC5502072, “Safety, tolerability and pharmacokinetics of the fibroblast growth factor receptor inhibitor AZD4547 in Japanese patients with advanced solid tumours: a Phase I study” (Investigational New Drugs, 2017).

The test system of this data set is FGFR2-amplified GC xenografts. The note with it: several AZD4547-treated animals; cited from earlier work.

For AZD4547, the Tumour regression entry is “complete and prolonged tumour regression”.
